Like-named read-outs stand apart in the source and are kept apart here.
System: M17/Adr

CC1=CC(=O)C(O)C2(C)C1CC1OC(=O)C(O)C3C(C)C(O)C4(O)OCC13C42 (stereo not shown) [Glaucarubolone, glaucarubolone]
zone of inhibition M17/Adr (25 ug/disk): >950 ZONE UNITS

CC1=CC(=O)[C@@H](O)[C@]2(C)[C@H]3[C@@]4(O)OC[C@@]35[C@@H](C[C@@H]12)OC(=O)C[C@H]5[C@@H](C)[C@H]4O [Chaparrinone]
zone of inhibition M17/Adr (5 ug/disk): 700 ZONE UNITS

Glaucarubinone
zone of inhibition M17/Adr: — 250 220 ZONE UNITS

(−)-Peninsularinone
zone of inhibition M17/Adr (0.25 ug/disk): 420 ZONE UNITS
